Measured affinities in a library of Ab-95 light chain variants

The target is the same throughout: PDVDLGDISGINAS, from the HR2 region of SARS-CoV-2 spike.

Each scFv is VH, the linker GGGGSGGGGSGGGGS, VL, as in the parent Ab-95, and differs from it in the CDRs of the light chain only.
VH: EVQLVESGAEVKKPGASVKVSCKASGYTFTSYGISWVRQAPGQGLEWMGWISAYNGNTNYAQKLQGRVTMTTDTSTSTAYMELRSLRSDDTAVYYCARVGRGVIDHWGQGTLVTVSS
VL: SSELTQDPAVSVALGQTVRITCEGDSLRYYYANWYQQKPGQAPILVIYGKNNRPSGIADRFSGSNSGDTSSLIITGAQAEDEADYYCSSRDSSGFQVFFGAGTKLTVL

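The starting antibody came from a phage panning campaign against this peptide. AAYL52 was designed without a model: most single CDR substitutions and a random sample of double and triple ones. The assay is AlphaSeq: two haploid yeast populations carry antibody and antigen on their surface. After mating in shaken culture at 30 °C for 16 h, diploids were selected and their barcode pairs sequenced. A regression on co-assayed BCL2-family reference pairs converts the normalised counts of each replicate to an apparent Kd. Each pool was mated in three replicate cultures.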

Changes read parent residue, position, new residue, counted from the first residue of the VL shown. The Kd shown is the geometric mean over detected replicates; a lower Kd is a better binder. Where no diploid with the target was found in any replicate, the entry reads "not detected": below detection, most likely a poor binder, though not proof of it. Nonspecific signal, from three strains lacking the peptide, appeared in 28% of pairings of library AAYL52, centred on 8.2 µM (5% of these signals below 800 nM); values are not corrected for it. Also given: how often the same scFv was detected with the empty control strains. For reference, the parent read 200 nM as the reference entry and 180 nM as a member of this library.

| changes | apparent Kd | replicates with signal | signal with controls |
|---|---|---|---|
| E23V/G24D/R53H | 30 µM | 2/3 | 5/9 |
| G24L/A32K | 2.0 µM | 3/3 | 1/9 |
| D25K/P54I/Q96S | 3.3 µM | 3/3 | 3/9 |
| S26R/A32K/G94M | 5.0 µM | 1/3 | 1/9 |
| Y30H/A32H/Q96A | 1.1 µM | 1/3 | 2/9 |
| R53Q/D91K/F95R | 3.8 µM | 1/3 | 1/9 |
| E23C/Q96K/V97M | 560 nM | 3/3 | 0/9 |
| A32F/N33I/N52K | 1.6 µM | 1/3 | 2/9 |
| R53D/S88Q | 30 µM | 2/3 | 2/9 |
| R28Y/N52E/V97H | 130 nM | 3/3 | 6/9 |
| G24D/Y29T/N33L | 3.7 µM | 1/3 | 1/9 |
| Y29E/G49N/N51S | 7.5 µM | 3/3 | 3/9 |
| Y30K/N51S/V97P | 120 nM | 3/3 | 2/9 |
| A32I/S88W/D91V | 8.9 µM | 1/3 | 1/9 |
| Y31I/A32I | 23 µM | 3/3 | 3/9 |
| S26L/G49Y/R90H | 19 µM | 1/3 | 5/9 |
| E23D/S26H/R53F | 6.8 µM | 3/3 | 2/9 |
| E23T/V97N | 200 nM | 3/3 | 1/9 |
| E23A/N51K/S89V | 1.7 µM | 3/3 | 2/9 |
| G24C/N52E/P54H | 1.8 µM | 3/3 | 0/9 |
| R28P/G49V | 68 µM | 1/3 | 0/9 |
| G49E/G94I | 2.5 µM | 1/3 | 1/9 |
| L27T/Y29A/Q96S | 15 µM | 1/3 | 2/9 |
| E23F/Y31F/S93N | 2.4 µM | 3/3 | 0/9 |
| Y31V/G49V/S92R | 4.8 µM | 3/3 | 6/9 |
| Y29Q/K50E/S55L | 81 nM | 3/3 | 1/9 |
| Y31M/R53F | 3.8 µM | 3/3 | 3/9 |
| Y31F/A32Q/N51H | 9.2 µM | 3/3 | 3/9 |
| L27W/Y31P/K50Q | 47 nM | 3/3 | 3/9 |
| G24L/D25Q/N52H | 210 nM | 3/3 | 3/9 |
| E23F/L27Q/G49D | not detected | 0/3 | 2/9 |

Continued, with the values leading:

| apparent Kd | replicates with signal | signal with controls | changes |
|---|---|---|---|
| 370 nM | 2/3 | 4/9 | Y30F/R90I/S92P |
| not detected | 0/3 | 2/9 | G24W/A32E/R90C |
| 8.1 µM | 1/3 | 2/9 | D25T/A32E/G94Y |
| 13 µM | 1/3 | 3/9 | P54C/S88V/V97P |
| 88 µM | 1/3 | 2/9 | L27W/R28I/R53A |
| 1.1 µM | 3/3 | 4/9 | R53S/S93N |
| 1.6 µM | 2/3 | 2/9 | D91E/S92K/V97Y |
| not detected | 0/3 | 1/9 | S55K/S89Y |
| 330 nM | 3/3 | 1/9 | E23T/K50S/R53T |
| 18 µM | 3/3 | 3/9 | S26R/Y29M/S93C |
| 30 µM | 1/3 | 1/9 | G24S/A32G/F95C |
| not detected | 0/3 | 2/9 | S88F/F98E |
| 27 µM | 3/3 | 5/9 | L27E/R53Q/S88I |
| 180 µM | 2/3 | 2/9 | Y31I/A32Y/S55G |
| 33 µM | 1/3 | 3/9 | S26Q/N33M/R53K |
| not detected | 0/3 | 0/9 | E23D/R53C/Q96I |
| 5.5 µM | 1/3 | 1/9 | G24Q/S26T/V97D |
| 2.4 µM | 2/3 | 0/9 | Y30S/P54C/G94A |
| not detected | 0/3 | 1/9 | R28L/Y30C/V97D |
| 3.0 µM | 3/3 | 5/9 | R90L/D91T/S93T |
| not detected | 0/3 | 1/9 | N33R/R53E/D91S |
| 1.3 µM | 3/3 | 4/9 | Y30W/P54L/S89Q |
| 530 nM | 3/3 | 2/9 | S26F/Y29T/F98G |
| 21 µM | 2/3 | 6/9 | Y29C/A32W/F98V |
| not detected | 0/3 | 1/9 | A32N/K50F/D91C |
| 11 µM | 1/3 | 1/9 | A32G/G49D/G94D |
| 14 µM | 3/3 | 7/9 | K50S/N52A/D91P |
| 5.4 µM | 3/3 | 5/9 | N33H/G49Q/N52K |
| 210 nM | 3/3 | 3/9 | N51D/R90K/S92A |
| 38 µM | 1/3 | 4/9 | E23L/K50R/N51F |
| 1.4 µM | 2/3 | 2/9 | D25Y/L27Q/Y31L |
| 1.4 µM | 3/3 | 5/9 | G24S/A32F/S55F |

10 of these entries, quoted again:

| changes | apparent Kd | replicates with signal | signal with controls |
|---|---|---|---|
| A32F/N33I/N52K | 1.6 µM | 1/3 | 2/9 |
| Y29Q/K50E/S55L | 81 nM | 3/3 | 1/9 |
| Y30S/P54C/G94A | 2.4 µM | 2/3 | 0/9 |
| Y31M/R53F | 3.8 µM | 3/3 | 3/9 |
| G24S/A32G/F95C | 30 µM | 1/3 | 1/9 |
| L27E/R53Q/S88I | 27 µM | 3/3 | 5/9 |
| L27W/Y31P/K50Q | 47 nM | 3/3 | 3/9 |
| E23T/K50S/R53T | 330 nM | 3/3 | 1/9 |
| A32G/G49D/G94D | 11 µM | 1/3 | 1/9 |
| E23C/Q96K/V97M | 560 nM | 3/3 | 0/9 |

Data: MIT Lincoln Laboratory AlphaSeq set, Engelhart et al. 2022, doi:10.1038/s41597-022-01779-4, as distributed in FLAb.